Yeast mating assay 2: variants of the scFv Ab-95

The measurements come from Engelhart et al. 2022 (doi:10.1038/s41597-022-01779-4) through the FLAb antibody collection.

Binding partner: SARS-CoV-2 spike HR2 peptide, sequence PDVDLGDISGINAS.

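Phage display of a naive human antibody library on the peptide gave the parent. Variants in AAYL52 differ from the parent at up to three CDR positions; double and triple changes were sampled at random. The scFvs were displayed on barcoded MATa yeast, the peptide on MATalpha yeast. After mating in shaken culture at 30 °C for 16 h, diploids were selected and their barcode pairs sequenced. The ratio of observed to expected reads was calibrated, replicate by replicate, on BCL2-family standards whose Kd was known from biolayer interferometry. There are three technical replicates.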

Parent: Ab-95, a human scFv built as VH, a 15-residue (Gly4Ser)3 linker, VL. Only the CDRs of the light chain vary.
VH: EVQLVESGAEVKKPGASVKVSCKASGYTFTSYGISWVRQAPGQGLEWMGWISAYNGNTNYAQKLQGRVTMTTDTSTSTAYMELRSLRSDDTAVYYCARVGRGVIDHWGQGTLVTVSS
VL: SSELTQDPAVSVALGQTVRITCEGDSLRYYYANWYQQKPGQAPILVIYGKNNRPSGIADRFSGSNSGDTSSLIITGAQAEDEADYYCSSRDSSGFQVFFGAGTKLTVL

Changes read parent residue, position, new residue, counted from the first residue of the VL shown.
This list gathers variants with a substitution at D25 (VL, numbered from residue 1).
Kd is apparent (estimated from mating counts) and averaged on the log scale over replicates with a signal. Smaller is tighter.
"nd" marks a missing value. The strain was present, yet no cells mated with the target were sequenced in any replicate, which points to weak or no binding.
In this assay the parent's reference entry averaged 200 nM; its copy inside this library read 180 nM.
Background: pairings of library AAYL52 with three empty control strains gave a value in 28% of cases (median 8.2 µM, 5th percentile 800 nM). Values in that range, when seen in few replicates, are hard to tell from nonspecific mating.

D25V/R28T/Y30F: 9.7 µM (3 of 3 replicates).
D25S/Y29K/K50G: 35 nM (3 of 3 replicates).
D25G/N51E/V97L: 5.0 µM (2 of 3 replicates).
D25G/D91A/S93T: 270 nM (3 of 3 replicates).
D25N/Y30R/S93E: 20 nM (3 of 3 replicates).
D25Y/R28T/S92W: nd (0 of 3 replicates).
D25G: 120 nM (3 of 3 replicates).
D25R/S55Y/Q96L: 1.5 µM (3 of 3 replicates).
D25C/Y29D/G49Y: 15 µM (1 of 3 replicates).
D25Y/Y29H/S88F: 14 µM (2 of 3 replicates).
D25L/K50L/S92T: 1.1 µM (3 of 3 replicates).
D25Y/S26A/R53K: 1.9 µM (3 of 3 replicates).
D25M/L27N/Y30V: 610 nM (2 of 3 replicates).
D25W/A32Y/S93A: 1.2 µM (1 of 3 replicates).
D25S/N51K/F95G: 29 µM (1 of 3 replicates).
D25Y/Y31V/Q96G: 3.6 µM (3 of 3 replicates).
D25F/Y30E/F95N: 790 nM (3 of 3 replicates).
D25E/V97N/F98P: 1.5 µM (3 of 3 replicates).
D25L/Y30V: 230 nM (3 of 3 replicates).
D25P/N51I: 4.5 µM (2 of 3 replicates).
D25A/S92Y: 160 nM (3 of 3 replicates).
D25L/P54C/R90A: 4.7 µM (2 of 3 replicates).
D25K/S92A/F95R: 170 nM (3 of 3 replicates).
G24F/D25W/R53T: 2.9 µM (3 of 3 replicates).
D25S/S55V/G94F: 9.3 µM (1 of 3 replicates).
D25G/G49T: 7.8 µM (3 of 3 replicates).
D25A/G94V/Q96H: 93 nM (3 of 3 replicates).
D25C/R28L/V97L: 13 µM (2 of 3 replicates).
D25E/N33Q/S92W: 38 µM (2 of 3 replicates).
D25S/G49E/V97D: nd (0 of 3 replicates).
D25H/D91Q: 5.2 µM (3 of 3 replicates).
D25Y/G49W/D91V: 46 µM (3 of 3 replicates).
D25T/D91P/V97P: 5.9 µM (3 of 3 replicates).
D25E/G94R/V97C: 150 nM (3 of 3 replicates).
D25I/Y29N/K50I: 190 nM (3 of 3 replicates).
D25H/A32M/S88P: 4.4 µM (1 of 3 replicates).
E23C/D25I: 1.7 µM (3 of 3 replicates).
D25A/K50P/S93Y: 2.0 µM (3 of 3 replicates).
D25W/A32F/N52L: 16 µM (2 of 3 replicates).
D25Q/P54L: 380 nM (3 of 3 replicates).
D25W/P54Q/S88T: 5.0 µM (3 of 3 replicates).
D25M/F95G/Q96E: 730 nM (2 of 3 replicates).
D25G/K50Q/F98T: 660 nM (3 of 3 replicates).
D25M/A32P/S92D: 65 nM (3 of 3 replicates).
D25T/F95Y: 310 nM (3 of 3 replicates).

The first 2 variants above that were never detected:

Variant D25Y/R28T/S92W gave nd (0 of 3 replicates).
Variant D25S/G49E/V97D gave nd (0 of 3 replicates).